Molecular target: 5-HT2A receptors (Rattus norvegicus, UniProt P14842)
Assay: in-vitro affinity to 5-HT2A receptors, displacement of [3H]ketanserine (Example A1)
Type: binding
Conditions: target not given; description names affinity to 5-HT2A receptors
Source text: The 5-HT2A receptors are exposed both to [^3H]ketanserine (a substance which is known for its affinity to the receptor) and also to the test compound. The decrease in the affinity of [^3H]ketanserine to the receptor is an indication of the affinity of the test substance to the 5-HT2A receptor.

The chains behind the UniProt entries cited, without tags or fusion partners.
UniProt P14842, whole entry: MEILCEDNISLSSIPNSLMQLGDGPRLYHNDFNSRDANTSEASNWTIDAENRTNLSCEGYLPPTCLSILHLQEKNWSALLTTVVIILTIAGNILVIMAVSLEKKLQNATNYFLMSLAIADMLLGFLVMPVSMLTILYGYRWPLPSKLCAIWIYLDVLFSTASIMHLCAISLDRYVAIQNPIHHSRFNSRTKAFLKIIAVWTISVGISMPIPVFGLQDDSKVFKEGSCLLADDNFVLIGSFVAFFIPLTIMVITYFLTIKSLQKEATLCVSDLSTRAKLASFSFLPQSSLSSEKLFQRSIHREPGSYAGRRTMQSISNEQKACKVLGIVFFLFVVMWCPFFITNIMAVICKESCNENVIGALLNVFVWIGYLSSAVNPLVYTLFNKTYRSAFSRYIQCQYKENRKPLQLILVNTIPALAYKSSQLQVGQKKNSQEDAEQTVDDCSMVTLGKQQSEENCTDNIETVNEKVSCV

| Compound | IC50 |
| --- | --- |
| {4-[1-Biphenyl-4-yl-5-(2-fluorophenyl)-1H-pyrazol-4-ylmethyl]-piperazin-1-yl}- [(75)] | 630 nM |
| NC(=O)c1[nH]cnc1NCc1cnn(-c2ccc(-c3ccccc3)cc2)c1-c1ccccc1F [(186), 5-{[1-Biphenyl-4-yl-5-(2-fluorophenyl)-1H-pyrazol-4-ylmethyl]-amino}-3H-imidazole-4-carboxamide] | 630 nM |
| Fc1ccc(-c2ccc(-n3ncc(CNc4cccnc4)c3-c3ccccc3F)cn2)cc1 [(175), {5-(2-Fluorophenyl)-1-[6-(4-fluorophenyl)pyridin-3-yl]-1H-pyrazol-4-ylmethyl}pyridin-3-ylamine] | 630 nM |

Reference: US20060264419A1 (priority 2003, published 2006)
